Patent publication US20240122926A1, “APELIN RECEPTOR MODULATORS FOR TREATING MUSCLE CONDITIONS” (priority 2022, published 2024)

Biological target: T1, human APLNR (Homo sapiens, UniProt P35414)
T1 sequence (P35414 1-380): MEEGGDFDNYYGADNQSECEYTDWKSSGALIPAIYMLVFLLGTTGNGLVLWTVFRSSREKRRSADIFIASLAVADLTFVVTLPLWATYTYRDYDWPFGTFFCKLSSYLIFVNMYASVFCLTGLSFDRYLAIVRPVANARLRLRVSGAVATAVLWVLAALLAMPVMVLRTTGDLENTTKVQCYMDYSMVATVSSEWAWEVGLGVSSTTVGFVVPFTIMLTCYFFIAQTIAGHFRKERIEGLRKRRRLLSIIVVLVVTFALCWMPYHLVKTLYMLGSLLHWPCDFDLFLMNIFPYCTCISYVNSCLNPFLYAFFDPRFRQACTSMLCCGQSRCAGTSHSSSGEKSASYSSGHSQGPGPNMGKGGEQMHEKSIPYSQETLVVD
Assay: cell-based
Experimental: APLNR activation was determined by β-arrestin recruitment as measured by the ProLink […] complementation technology (93-0001, DiscoveRx). In brief, CHO cells stably expressing APLNR were seeded and incubated overnight at 37° C. The compounds were tested in duplicate and diluted to obtain a 10-point curve with 3-fold serial dilutions (<1% DMSO). The compounds and cells were incubated for 3 hours at 37° C. After the incubation period the detection reagents were added and the plate chemiluminescent signal was measured after 30 min at RT.

## COc1cccc(OC)c1-n1c(NS(=O)(=O)[C@@H](C)[C@H](C)c2ncc(C)cn2)nnc1-c1cncc(C)c1 [BGE-105, (2S,3R)—N-(4-(2,6-dimethoxyphenyl)-5-(5-methyl-3-pyridinyl)-4H-1,2,4-triazol-3-yl)-3-(5-methyl-2-pyrimidinyl)-2-butanesulfonamide]
  EC50: 0.1 nM
